Results as given in ChEMBL document CHEMBL5331141.

Test system: HEK293
Experiment: Effect on HEK293 cells lacking human mu opioid receptor assessed as inhibition of cAMP accumulation at 1 uM
Format: functional, cell-based

| SMILES | Activity |
| --- | --- |
| C=C(C)[C@@H]1CCC(C)=C[C@H]1c1c(O)cc(CCCC)cc1O | inactive |
| C=C(C)[C@@H]1CCC(C)=C[C@H]1c1c(OC)cc(CCCCC)cc1OC | inactive |
| C=C(C)[C@@H]1CCC(C)=C[C@H]1c1c(O)cc(CC)cc1O | inactive |
| C=C(I)[C@@H]1CC[C@@]2(C)C[C@@H]1c1c(O)cc(CCCCC)cc1O2 | inactive |
| C=CCc1cc(O)c([C@@H]2C=C(C)CC[C@H]2C(=C)C)c(O)c1 | inactive |
| CCCCCc1cc(O)c([C@@H]2C[C@@H](C)CC[C@H]2C(C)C)c(O)c1 | inactive |
| C=C(C)[C@@H]1CCC(C)=C[C@H]1c1c(O)cc(CC(C)C)cc1O | inactive |
| CCCCCc1cc(O)c([C@@H]2C[C@@H](CO)CC[C@H]2C(C)C)c(O)c1 | inactive |
| C=Cc1cc(O)c([C@@H]2C=C(C)CC[C@H]2C(=C)C)c(O)c1 | inactive |
| C=C(COC(C)=O)[C@@H]1CCC(C)=C[C@H]1c1c(O)cc(CCCCC)cc1O | inactive |
| C=C(I)[C@H]1CC[C@]2(C)C[C@H]1c1c(O)cc(CCCCC)cc1O2 | inactive |
| C=C(C)[C@H]1CC[C@]2(C)C[C@H]1c1c(O)cc(CCCCC)cc1O2 | inactive |
| CCCCCc1cc(O)c([C@@H]2C=C(C)CC[C@H]2C(C)C)c(O)c1 | inactive |
| C=C(CO)[C@@H]1CCC(C)=C[C@H]1c1c(OC(C)=O)cc(CCCCC)cc1OC(C)=O | inactive |

Active and inactive are the calls of the source. The rule behind the calls is not given here.
